The values that follow come from publication PMC11308778.

Where “and” joins values, the source holds several entries; their conditions need not be identical. Identical values can stand only once.

Test [1] addresses MYCWBMtFhuA nanopore sensor (peptide adaptor O - MYCWBM peptide ligand - Gly/Ser tether - tFhuA) (not stated | Escherichia coli). Put plainly: single-channel electrical recording (nanopore sensor, resistive-pulse technique); MYCWBMtFhuA in a planar lipid bilayer, WDR5 added to the cis side; 100 mM KCl, 20 mM Tris-HCl, 1 mM TCEP, pH 7.5; -20 mV.
The target is the same in test [2]. The test can be described thus: single-channel electrical recording (nanopore sensor, resistive-pulse technique); MYCWBMtFhuA in a planar lipid bilayer, 11.4 µM WDR5 added to the cis side; 300 mM KCl, 20 mM Tris-HCl, 1 mM TCEP, pH 7.5; applied transmembrane potential +40 mV.
For test [3] the target is unchanged. Put plainly: single-channel electrical recording (nanopore sensor, resistive-pulse technique); MYCWBMtFhuA in a planar lipid bilayer, 11.4 µM WDR5 added to the cis side; 300 mM KCl, 20 mM Tris-HCl, 1 mM TCEP, pH 7.5; applied transmembrane potential +20 mV.
For test [4] the target is unchanged. The test can be described thus: single-channel electrical recording (nanopore sensor, resistive-pulse technique); MYCWBMtFhuA in a planar lipid bilayer, 11.4 µM WDR5 added to the cis side; 300 mM KCl, 20 mM Tris-HCl, 1 mM TCEP, pH 7.5; applied transmembrane potential +10 mV.
For test [5] the target is unchanged. The test can be described thus: single-channel electrical recording (nanopore sensor, resistive-pulse technique); MYCWBMtFhuA reconstituted into a planar lipid bilayer, WDR5 added to the cis side; 300 mM KCl, 20 mM Tris-HCl, 1 mM TCEP, pH 7.5, 23 ± 1 °C; applied transmembrane potential -20 mV.
The target is the same in test [6]. The test can be described thus: single-channel electrical recording (nanopore sensor, resistive-pulse technique); MYCWBMtFhuA in a planar lipid bilayer, 11.4 µM WDR5 added to the cis side; 300 mM KCl, 20 mM Tris-HCl, 1 mM TCEP, pH 7.5; applied transmembrane potential -10 mV.
Test [7] shares this target. Put plainly: single-channel electrical recording (nanopore sensor, resistive-pulse technique); MYCWBMtFhuA reconstituted into a planar lipid bilayer, WDR5 added to the cis side; 300 mM KCl, 20 mM Tris-HCl, 1 mM TCEP, pH 7.5, 23 ± 1 °C; applied transmembrane potential -20 mV. This is another data set of the same source.
Test [8] has the same target. The test can be described thus: single-channel electrical recording (nanopore sensor, resistive-pulse technique); MYCWBMtFhuA in a planar lipid bilayer, WDR5 added to the cis side; 200 mM KCl, 20 mM Tris-HCl, 1 mM TCEP, pH 7.5; -20 mV.
The target is the same in test [9]. Put plainly: single-channel electrical recording (nanopore sensor, resistive-pulse technique); MYCWBMtFhuA in a planar lipid bilayer, 11.4 µM WDR5 added to the cis side; 300 mM KCl, 20 mM Tris-HCl, 1 mM TCEP, pH 7.5; applied transmembrane potential -40 mV.
The target is the same in test [10]. Put plainly: single-channel electrical recording (nanopore sensor, resistive-pulse technique); MYCWBMtFhuA in a planar lipid bilayer, WDR5 added to the cis side; 400 mM KCl, 20 mM Tris-HCl, 1 mM TCEP, pH 7.5; -20 mV.
For test [11] the target is unchanged. Put plainly: single-channel electrical recording (nanopore sensor, resistive-pulse technique); MYCWBMtFhuA reconstituted into a planar lipid bilayer, WDR5 added to the cis side; 300 mM KCl, 20 mM Tris-HCl, 1 mM TCEP, pH 7.5, 23 ± 1 °C; applied transmembrane potential -20 mV. This is another data set of the same source.
For test [12] the target is unchanged. Put plainly: single-channel electrical recording (nanopore sensor, resistive-pulse technique); MYCWBMtFhuA in a planar lipid bilayer, WDR5 added to the cis side; 50 mM KCl, 20 mM Tris-HCl, 1 mM TCEP, pH 7.5; -20 mV.
The target in test [13] is MYCWBMtFhuA nanopore sensor (human | Escherichia coli). Put plainly: single-channel electrical recording (resistive-pulse, nanopore sensor); series of applied voltages from +40 to -40 mV; 300 mM KCl, 20 mM Tris-HCl, 1 mM TCEP, pH 7.5, 11.4 uM WDR5 on the cis side; ln(kon) extrapolated to 0 mV.
For test [14], the target named is MLL4WintFhuA nanopore sensor (human | Escherichia coli). Put plainly: single-channel electrical recording (resistive-pulse, nanopore sensor); single nanopore reconstituted into a planar lipid bilayer, WDR5 added to the cis side; 300 mM KCl, 20 mM Tris-HCl, 1 mM TCEP, pH 7.5, -20 mV, 23 °C; KD = koff/kon.
The target of test [15] is MYCWBMtFhuA nanopore sensor (human | Escherichia coli). The test is described as above.
Test [16] shares this target. The test can be described thus: single-channel electrical recording (resistive-pulse, nanopore sensor); series of KCl concentrations from 50 to 400 mM, -20 mV, pH 7.5; kon against [KCl] with extrapolation to zero and to infinite [KCl].
Test [17] shares this target. The test can be described thus: single-channel electrical recording (resistive-pulse, nanopore sensor); as a1 but 50 mM KCl, 20 mM Tris-HCl, 1 mM TCEP, pH 7.5, -20 mV; 11.4 uM WDR5 for the histograms.
Test [18] shares this target. The test can be described thus: single-channel electrical recording (resistive-pulse, nanopore sensor); as a1 but 400 mM KCl, 20 mM Tris-HCl, 1 mM TCEP, pH 7.5, -20 mV; 11.4 uM WDR5 for the histograms.

In the case of “WD repeat-containing protein 5 (WDR5), N-terminal truncation WDR5 23-334 (from UniProt P61964 23-334) (domain or fragment)”, the Kd is 58 µM and 52 µM and 51 µM in test [1]; 122 µM and 115 µM in [8]; 291 µM and 272 µM and 293 µM in test [10]; 192 µM and 197 µM and 203 µM in test [11]; 24 µM and 26 µM in test [12]. Further, the koff was 12 s⁻¹ and 11 s⁻¹ in test [1]; 34 s⁻¹ in test [2]; 32 s⁻¹ in test [3]; 30 s⁻¹ in [4]; 27 s⁻¹ in [6]; 27 s⁻¹ and 25 s⁻¹ and 28 s⁻¹ in test [7]. Moreover, the koff in test [8] is 21 s⁻¹ and 19 s⁻¹ and 20 s⁻¹; in test [9], 23 s⁻¹; in [10], 30 s⁻¹ and 31 s⁻¹; in [11], 26 s⁻¹; in test [12] it was 7 s⁻¹ and 7.1 s⁻¹ and 6.6 s⁻¹. Also, the kon was 220000 M⁻¹ s⁻¹ and 210000 M⁻¹ s⁻¹ in test [1]; 8000 M⁻¹ s⁻¹ in [2]; 20000 M⁻¹ s⁻¹ in test [3]; 30000 M⁻¹ s⁻¹ in [4]; 130000 M⁻¹ s⁻¹ and 140000 M⁻¹ s⁻¹ in [5]; 60000 M⁻¹ s⁻¹ in test [6]. For the same substance, the kon is 170000 M⁻¹ s⁻¹ and 160000 M⁻¹ s⁻¹ and 180000 M⁻¹ s⁻¹ in test [8]; 310000 M⁻¹ s⁻¹ in test [9]; 100000 M⁻¹ s⁻¹ and 110000 M⁻¹ s⁻¹ in test [10]; 150000 M⁻¹ s⁻¹ and 160000 M⁻¹ s⁻¹ in test [11].

As for “WD repeat-containing protein 5, N-terminal truncation (WDR5^23–334) (from UniProt P61964 23-334) (domain or fragment)”, the kon at 0 mV in [13] was 48000 M⁻¹ s⁻¹. The same substance yielded a kon-1 (short-lived events) in test [14] of 140000 M⁻¹ s⁻¹. Moreover, in test [15], the dissociation constant (Kd) was 200 µM, the bound duration stood at 38 ms, the bound duration tau-off at 4 uM WDR5 came out at 40 ms and the bound duration tau-off at 7.8 uM WDR5 was determined as 37 ms. Besides, in [15], the bound duration tau-off at 18.1 uM WDR5 is 39 ms, the koff came out at 26 s⁻¹, the kon amounted to 140000 M⁻¹ s⁻¹ and the unbound duration tau-on at 4 uM WDR5 stood at 1560 ms. In [15], this substance registered an unbound duration tau-on at 7.8 uM WDR5 of 879 ms and an unbound duration tau-on at 18.1 uM WDR5 of 419 ms. In [16], the basal kon at infinite [KCl] was under 100000 M⁻¹ s⁻¹, the electrolyte-free kon (intercept of kon against [KCl]) is 290000 M⁻¹ s⁻¹ and the fold increase of kon at 50 mM KCl against 400 mM KCl was 3 fold. Further, in [17], the Kd worked out at 25 µM, the bound duration tau-off at 11.4 uM WDR5 amounted to 153 ms and the unbound duration tau-on at 11.4 uM WDR5 came to 347 ms. In test [18], the Kd turned out to be 290 µM, the bound duration tau-off at 11.4 uM WDR5 is 33 ms and the unbound duration tau-on at 11.4 uM WDR5 amounted to 844 ms.

As usually defined, the Kd is a measure of binding affinity in units of concentration. As a reminder, the koff is a measure of how fast the partners let go of each other. Low values mean a long-lived complex, high ones a short-lived complex. One may read the kon as the rate constant with which the complex forms.
